Target: Alpha-2A adrenergic receptor (Homo sapiens, UniProt P08913)
Test: biochemical

The chains behind the UniProt entries cited, without tags or fusion partners.
UniProt P08913, whole entry: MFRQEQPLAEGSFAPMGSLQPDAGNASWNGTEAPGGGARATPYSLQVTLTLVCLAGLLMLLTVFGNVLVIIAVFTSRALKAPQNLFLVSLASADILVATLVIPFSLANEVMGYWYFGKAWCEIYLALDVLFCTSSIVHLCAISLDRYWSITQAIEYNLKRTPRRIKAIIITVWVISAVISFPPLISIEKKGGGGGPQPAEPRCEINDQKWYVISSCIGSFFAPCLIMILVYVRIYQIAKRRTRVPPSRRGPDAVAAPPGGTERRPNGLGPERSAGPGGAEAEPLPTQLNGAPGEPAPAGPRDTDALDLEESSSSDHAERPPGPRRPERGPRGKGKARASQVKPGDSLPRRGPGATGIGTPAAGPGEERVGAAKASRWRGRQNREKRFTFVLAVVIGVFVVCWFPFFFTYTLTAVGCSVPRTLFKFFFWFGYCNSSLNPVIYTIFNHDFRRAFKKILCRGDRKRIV

CCOP(=O)(OCC)C1(c2ccccc2)N=CC2C(=O)N(c3ccc(F)c(Cl)c3)C(=O)C21 (racemic)
Ki: 0.053 µM

— ChEMBL document CHEMBL4354864, “Bicyclic α-Iminophosphonates as High Affinity Imidazoline I2 Receptor Ligands for Alzheimer's Disease” (J Med Chem, 2020)
